Here are results for two compounds from PMC5225454, “A Comprehensive Evaluation of the Activity and Selectivity Profile of Ligands for RGD-binding Integrins” (Scientific Reports, 2017).

The chains behind the UniProt entries cited, without tags or fusion partners. Residues count along the entry.
UniProt P06756, 31-992 limits assumed: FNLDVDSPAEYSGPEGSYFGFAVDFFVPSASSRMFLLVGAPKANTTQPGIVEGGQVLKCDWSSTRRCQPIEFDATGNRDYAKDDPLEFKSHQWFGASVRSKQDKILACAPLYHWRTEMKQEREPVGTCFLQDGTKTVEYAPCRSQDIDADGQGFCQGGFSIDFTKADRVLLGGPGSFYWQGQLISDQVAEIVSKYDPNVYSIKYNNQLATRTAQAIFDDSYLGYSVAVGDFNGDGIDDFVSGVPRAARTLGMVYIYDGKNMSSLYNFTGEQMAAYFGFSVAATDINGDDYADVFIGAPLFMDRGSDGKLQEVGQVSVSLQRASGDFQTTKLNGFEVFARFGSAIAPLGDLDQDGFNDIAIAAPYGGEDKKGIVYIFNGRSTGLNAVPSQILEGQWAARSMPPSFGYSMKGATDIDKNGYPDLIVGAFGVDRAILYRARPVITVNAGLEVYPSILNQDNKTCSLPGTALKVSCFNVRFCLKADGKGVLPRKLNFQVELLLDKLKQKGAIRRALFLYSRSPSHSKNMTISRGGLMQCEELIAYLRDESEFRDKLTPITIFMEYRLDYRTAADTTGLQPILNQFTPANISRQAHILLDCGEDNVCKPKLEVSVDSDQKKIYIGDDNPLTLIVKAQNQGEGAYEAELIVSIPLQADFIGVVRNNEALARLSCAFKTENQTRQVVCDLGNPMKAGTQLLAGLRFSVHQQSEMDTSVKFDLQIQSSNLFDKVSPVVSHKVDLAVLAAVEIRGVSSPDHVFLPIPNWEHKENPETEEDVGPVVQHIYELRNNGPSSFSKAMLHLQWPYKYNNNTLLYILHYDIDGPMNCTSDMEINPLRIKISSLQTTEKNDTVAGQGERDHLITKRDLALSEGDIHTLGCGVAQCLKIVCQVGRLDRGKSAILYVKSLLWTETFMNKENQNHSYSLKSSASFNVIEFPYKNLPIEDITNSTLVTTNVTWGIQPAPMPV
UniProt P06756, 31-1048 limits assumed: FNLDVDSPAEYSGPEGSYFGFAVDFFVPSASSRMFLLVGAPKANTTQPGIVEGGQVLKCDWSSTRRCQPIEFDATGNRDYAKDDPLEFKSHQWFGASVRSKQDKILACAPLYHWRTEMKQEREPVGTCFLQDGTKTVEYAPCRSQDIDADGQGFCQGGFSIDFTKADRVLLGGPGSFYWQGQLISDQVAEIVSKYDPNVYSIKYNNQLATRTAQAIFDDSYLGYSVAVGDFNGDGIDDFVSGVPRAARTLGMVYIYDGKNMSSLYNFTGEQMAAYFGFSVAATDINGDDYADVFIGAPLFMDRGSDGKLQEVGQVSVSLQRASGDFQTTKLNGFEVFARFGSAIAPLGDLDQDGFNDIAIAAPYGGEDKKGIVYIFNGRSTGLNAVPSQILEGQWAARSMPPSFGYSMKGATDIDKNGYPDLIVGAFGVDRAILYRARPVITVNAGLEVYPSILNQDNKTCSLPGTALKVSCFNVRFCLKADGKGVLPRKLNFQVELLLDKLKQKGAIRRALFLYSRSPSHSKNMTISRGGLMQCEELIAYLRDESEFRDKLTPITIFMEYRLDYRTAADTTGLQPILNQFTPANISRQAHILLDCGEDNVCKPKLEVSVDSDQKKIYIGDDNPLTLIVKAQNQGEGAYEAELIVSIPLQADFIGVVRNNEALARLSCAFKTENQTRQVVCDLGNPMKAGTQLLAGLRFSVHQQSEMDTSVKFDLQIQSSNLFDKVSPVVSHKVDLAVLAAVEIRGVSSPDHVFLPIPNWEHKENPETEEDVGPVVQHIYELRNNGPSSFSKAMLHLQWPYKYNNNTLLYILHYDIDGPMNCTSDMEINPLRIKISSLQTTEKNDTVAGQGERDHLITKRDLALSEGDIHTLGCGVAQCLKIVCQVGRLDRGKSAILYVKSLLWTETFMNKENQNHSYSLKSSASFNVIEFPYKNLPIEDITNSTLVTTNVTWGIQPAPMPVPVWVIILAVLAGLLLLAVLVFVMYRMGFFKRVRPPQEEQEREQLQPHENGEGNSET
UniProt P18084, 24-799 limits assumed: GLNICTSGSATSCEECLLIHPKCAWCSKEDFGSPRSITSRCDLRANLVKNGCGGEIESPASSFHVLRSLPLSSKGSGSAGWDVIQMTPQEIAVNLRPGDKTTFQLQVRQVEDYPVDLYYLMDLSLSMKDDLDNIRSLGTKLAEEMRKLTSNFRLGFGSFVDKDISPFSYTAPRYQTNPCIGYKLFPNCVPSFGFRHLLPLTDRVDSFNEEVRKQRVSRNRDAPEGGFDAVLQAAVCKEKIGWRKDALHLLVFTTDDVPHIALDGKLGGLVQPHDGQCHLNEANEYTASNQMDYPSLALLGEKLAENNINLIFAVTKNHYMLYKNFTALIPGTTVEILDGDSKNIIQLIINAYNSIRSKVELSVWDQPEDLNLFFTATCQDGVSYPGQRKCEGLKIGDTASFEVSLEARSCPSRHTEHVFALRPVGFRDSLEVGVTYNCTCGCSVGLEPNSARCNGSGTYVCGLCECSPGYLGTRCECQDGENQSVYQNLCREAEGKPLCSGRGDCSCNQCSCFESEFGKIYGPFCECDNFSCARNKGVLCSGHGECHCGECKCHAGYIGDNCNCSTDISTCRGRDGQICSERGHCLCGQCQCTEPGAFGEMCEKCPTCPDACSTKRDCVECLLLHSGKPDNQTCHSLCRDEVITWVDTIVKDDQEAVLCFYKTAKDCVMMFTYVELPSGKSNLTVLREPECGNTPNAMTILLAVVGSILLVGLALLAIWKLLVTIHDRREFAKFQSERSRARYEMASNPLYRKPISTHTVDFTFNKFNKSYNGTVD
UniProt P05106, 27-718 limits assumed: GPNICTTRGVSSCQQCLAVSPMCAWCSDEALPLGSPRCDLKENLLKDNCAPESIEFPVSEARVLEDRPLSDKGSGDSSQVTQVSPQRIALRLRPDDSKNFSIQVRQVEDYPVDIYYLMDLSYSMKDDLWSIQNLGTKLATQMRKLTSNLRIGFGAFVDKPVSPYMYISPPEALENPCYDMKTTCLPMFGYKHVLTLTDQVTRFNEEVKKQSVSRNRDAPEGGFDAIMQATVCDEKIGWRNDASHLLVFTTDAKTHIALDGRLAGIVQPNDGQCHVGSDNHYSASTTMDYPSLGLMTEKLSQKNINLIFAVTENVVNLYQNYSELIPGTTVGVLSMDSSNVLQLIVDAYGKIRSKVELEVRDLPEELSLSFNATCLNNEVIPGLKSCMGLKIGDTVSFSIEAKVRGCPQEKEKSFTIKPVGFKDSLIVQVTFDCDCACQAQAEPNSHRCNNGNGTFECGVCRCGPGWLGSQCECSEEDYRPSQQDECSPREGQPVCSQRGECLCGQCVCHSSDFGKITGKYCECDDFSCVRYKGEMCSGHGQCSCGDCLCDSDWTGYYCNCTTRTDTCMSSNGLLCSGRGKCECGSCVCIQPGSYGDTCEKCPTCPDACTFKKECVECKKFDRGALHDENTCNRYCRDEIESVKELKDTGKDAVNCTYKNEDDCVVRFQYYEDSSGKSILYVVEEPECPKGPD
UniProt P05106, 27-788 limits assumed: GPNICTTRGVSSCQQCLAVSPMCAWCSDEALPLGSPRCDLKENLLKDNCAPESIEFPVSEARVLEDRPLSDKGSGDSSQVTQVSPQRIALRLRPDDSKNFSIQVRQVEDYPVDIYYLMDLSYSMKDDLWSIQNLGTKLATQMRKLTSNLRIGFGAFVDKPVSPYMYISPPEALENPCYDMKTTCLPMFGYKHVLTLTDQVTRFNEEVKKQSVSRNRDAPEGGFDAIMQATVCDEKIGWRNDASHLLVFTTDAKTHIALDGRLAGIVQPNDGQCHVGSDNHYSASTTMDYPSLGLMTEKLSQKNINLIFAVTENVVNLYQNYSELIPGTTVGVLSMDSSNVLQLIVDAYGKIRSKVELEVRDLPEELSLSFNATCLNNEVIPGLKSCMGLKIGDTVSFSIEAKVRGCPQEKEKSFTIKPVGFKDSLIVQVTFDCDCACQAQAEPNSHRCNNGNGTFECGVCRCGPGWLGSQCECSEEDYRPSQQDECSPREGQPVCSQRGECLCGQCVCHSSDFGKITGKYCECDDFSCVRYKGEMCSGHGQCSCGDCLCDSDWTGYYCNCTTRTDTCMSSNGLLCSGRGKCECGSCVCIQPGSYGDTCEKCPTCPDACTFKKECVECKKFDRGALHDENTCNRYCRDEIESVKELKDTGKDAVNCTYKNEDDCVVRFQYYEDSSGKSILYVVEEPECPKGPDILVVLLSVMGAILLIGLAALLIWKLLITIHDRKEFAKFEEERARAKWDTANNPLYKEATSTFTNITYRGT
UniProt P08648, 42-995 limits assumed: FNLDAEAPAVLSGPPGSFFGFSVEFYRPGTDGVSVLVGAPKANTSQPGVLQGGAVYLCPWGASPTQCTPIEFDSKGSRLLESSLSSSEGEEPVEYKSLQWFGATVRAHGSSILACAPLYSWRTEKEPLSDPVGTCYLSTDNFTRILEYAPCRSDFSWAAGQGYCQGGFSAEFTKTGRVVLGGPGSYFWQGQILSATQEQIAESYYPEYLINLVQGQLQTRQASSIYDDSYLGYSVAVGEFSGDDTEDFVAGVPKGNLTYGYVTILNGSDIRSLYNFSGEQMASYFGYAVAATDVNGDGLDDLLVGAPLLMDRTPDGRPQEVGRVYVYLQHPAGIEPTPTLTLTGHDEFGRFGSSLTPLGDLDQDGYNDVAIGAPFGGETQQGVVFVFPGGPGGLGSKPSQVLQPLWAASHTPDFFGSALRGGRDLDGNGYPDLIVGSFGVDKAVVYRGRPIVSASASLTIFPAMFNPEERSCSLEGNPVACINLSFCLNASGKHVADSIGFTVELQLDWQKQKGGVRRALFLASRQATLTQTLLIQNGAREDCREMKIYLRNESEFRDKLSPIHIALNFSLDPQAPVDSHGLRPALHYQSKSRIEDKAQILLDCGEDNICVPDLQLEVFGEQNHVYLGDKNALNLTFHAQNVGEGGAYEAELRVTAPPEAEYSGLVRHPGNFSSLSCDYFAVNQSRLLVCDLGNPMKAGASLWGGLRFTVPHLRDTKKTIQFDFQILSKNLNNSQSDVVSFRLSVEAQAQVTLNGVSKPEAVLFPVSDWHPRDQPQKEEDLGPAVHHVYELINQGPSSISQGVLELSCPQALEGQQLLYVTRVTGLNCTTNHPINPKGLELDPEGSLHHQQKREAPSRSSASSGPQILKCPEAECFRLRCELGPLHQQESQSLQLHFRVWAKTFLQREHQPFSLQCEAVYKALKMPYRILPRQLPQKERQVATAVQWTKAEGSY
UniProt P26012, 43-684 limits assumed: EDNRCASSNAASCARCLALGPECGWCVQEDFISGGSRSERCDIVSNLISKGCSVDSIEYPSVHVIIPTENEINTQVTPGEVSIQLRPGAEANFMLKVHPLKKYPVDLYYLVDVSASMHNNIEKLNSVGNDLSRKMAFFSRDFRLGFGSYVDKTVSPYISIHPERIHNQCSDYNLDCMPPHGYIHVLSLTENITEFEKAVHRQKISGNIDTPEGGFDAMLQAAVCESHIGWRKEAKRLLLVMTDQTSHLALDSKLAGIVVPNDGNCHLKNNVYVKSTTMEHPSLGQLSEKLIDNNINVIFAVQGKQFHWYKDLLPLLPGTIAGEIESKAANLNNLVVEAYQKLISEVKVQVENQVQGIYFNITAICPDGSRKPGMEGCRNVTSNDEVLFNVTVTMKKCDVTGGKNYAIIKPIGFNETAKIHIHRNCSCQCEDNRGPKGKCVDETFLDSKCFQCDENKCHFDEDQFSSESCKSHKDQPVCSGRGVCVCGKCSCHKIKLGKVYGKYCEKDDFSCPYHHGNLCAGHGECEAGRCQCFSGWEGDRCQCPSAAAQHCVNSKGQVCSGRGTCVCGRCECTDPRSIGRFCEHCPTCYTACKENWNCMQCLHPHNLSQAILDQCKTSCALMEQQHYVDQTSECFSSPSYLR
UniProt P18564, 22-707 limits assumed: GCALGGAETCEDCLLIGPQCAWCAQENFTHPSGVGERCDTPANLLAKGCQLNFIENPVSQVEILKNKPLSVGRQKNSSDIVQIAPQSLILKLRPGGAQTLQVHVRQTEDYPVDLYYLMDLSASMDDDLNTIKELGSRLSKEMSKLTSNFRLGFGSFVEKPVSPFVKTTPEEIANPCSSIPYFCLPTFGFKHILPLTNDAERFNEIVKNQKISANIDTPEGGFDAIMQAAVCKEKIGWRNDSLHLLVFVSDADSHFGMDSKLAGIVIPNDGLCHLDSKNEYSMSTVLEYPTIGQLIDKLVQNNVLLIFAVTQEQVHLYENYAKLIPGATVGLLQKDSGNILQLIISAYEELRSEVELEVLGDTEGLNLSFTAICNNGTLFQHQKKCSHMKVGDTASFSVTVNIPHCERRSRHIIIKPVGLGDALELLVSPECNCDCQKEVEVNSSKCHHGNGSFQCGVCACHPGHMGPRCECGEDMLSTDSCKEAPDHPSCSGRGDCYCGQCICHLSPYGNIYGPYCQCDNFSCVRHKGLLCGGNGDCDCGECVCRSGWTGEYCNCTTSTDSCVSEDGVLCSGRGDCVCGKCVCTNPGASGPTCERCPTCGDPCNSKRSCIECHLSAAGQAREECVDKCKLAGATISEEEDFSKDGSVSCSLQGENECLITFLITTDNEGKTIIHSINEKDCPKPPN

A word on the IC50: it is the concentration needed to halve the response being measured.

The target of one test is human αvβ5-integrin (Homo sapiens, UniProt P06756+P18084). The experiment in a line: ELISA-like solid-phase binding assay, soluble integrin αvβ5 vs coated vitronectin. As to conditions: read-out: IC50 αvβ5, referenced to internal standard. Background: In an ELISA, binding on a coated surface is turned into a signal by an enzyme label.
The target of test [1] is human platelet integrin αIIbβ3 (Homo sapiens, UniProt P05106+P08514). The experiment in a line: ELISA-like solid-phase binding assay, soluble integrin αIIbβ3 vs coated fibrinogen. As to conditions: read-out: IC50 αIIbβ3, referenced to internal standard.
The target in a further test is α5β1 integrin (Homo sapiens, UniProt P05556+P08648). The experiment in a line: ELISA-like solid-phase binding assay, soluble integrin α5β1 vs coated fibronectin. The following applies: read-out: IC50 α5β1, referenced to internal standard.
The target in a further test is human αvβ8-Integrin (Homo sapiens, UniProt P06756+P26012). The experiment in a line: ELISA-like solid-phase binding assay, soluble integrin αvβ8 vs coated LAP (TGF-β). The following applies: read-out: IC50 αvβ8, referenced to internal standard.
A further test concerns the target human αvβ6-Integrin (Homo sapiens, UniProt P06756+P18564). Description: ELISA-like solid-phase binding assay, soluble integrin αvβ6 vs coated LAP (TGF-β). As to conditions: read-out: IC50 αvβ6, referenced to internal standard.
For another test, the target named is human αvβ3-integrin (Homo sapiens, UniProt P05106+P06756). The experiment in a line: ELISA-like solid-phase binding assay, soluble integrin αvβ3 vs coated vitronectin. The following applies: read-out: IC50 αvβ3, referenced to internal standard.

Turning to `Cc1cc(OC(C)C)cc(C)c1C(=O)N[C@@H](CNC(=O)CNC(=O)c1cccc(NC(=N)N)c1)C(=O)O`, the IC50 at human αvβ5-integrin is over 10000 nM; in test [1], over 10000 nM; at α5β1 integrin, 2.3 nM; on human αvβ8-Integrin it was 37 nM; on human αvβ6-Integrin, 433 nM; on human αvβ3-integrin it was over 10000 nM.

As to `COc1ccnc(NCCCOc2ccc(C[C@@H](CC(=O)O)NC(=O)c3ccc(OC(C)C)cc3)cc2)c1` (single isomer, unassigned), the IC50 on human αvβ5-integrin was 199 nM; in test [1] it was over 10000 nM; at α5β1 integrin, 108 nM; on human αvβ8-Integrin, over 10000 nM; on human αvβ6-Integrin, over 10000 nM; at human αvβ3-integrin, 0.65 nM.
